Results published in article PMC6467748.

Sequences of proteins named here, by UniProt entry; tags and fusion partners are left off. Residues count along the entry.
UniProt P13590, 20-711: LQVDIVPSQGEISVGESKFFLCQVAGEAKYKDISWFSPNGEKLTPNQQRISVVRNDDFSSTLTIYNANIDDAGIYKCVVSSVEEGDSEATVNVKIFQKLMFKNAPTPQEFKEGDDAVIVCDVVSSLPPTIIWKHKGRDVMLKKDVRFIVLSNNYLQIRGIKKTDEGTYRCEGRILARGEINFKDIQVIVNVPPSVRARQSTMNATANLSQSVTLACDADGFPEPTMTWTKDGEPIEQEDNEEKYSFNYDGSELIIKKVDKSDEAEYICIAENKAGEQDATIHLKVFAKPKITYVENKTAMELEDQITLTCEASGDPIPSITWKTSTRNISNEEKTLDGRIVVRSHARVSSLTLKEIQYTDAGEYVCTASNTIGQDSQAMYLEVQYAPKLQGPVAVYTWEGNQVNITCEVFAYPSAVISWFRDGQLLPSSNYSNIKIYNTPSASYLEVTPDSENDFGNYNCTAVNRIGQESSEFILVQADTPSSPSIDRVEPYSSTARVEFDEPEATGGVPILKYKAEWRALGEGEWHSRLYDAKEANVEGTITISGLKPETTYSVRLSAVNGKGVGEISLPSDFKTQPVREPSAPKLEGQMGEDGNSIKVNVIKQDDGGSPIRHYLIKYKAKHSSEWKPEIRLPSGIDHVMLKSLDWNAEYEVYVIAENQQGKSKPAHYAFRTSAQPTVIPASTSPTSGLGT

Target: chimeric human IgG1 mAb ch735 (mouse | human)
Experiment: SPR

Kd: 4.79 nM
Substance: chicken brain-derived polysialylated neural cell adhesion molecule (NCAM) (from UniProt P13590 20-711) (natural protein)
